The results in this text go back to patent US20110097751A1.

This experiment concerns the target GLP-1 receptor on rat thyroid carcinoma 6-23 (clone 6) cells (rat) (UniProt P32301). The experiment in a line: cell-based or functional assay.

“exenatide (synthetic exendin-4) (peptide)”: the Mean Relative Potency (cAMP HTRF bioassay; sample REF50, 0.125 mg/mL, against exenatide reference standard) turned out to be 0.467; the Mean Relative Potency (cAMP HTRF bioassay; sample REF075, 0.188 mg/mL, against exenatide reference standard) was found to be 0.758; the Mean Relative Potency (cAMP HTRF bioassay; sample REF100, against exenatide reference standard) turned out to be 1.01; the Mean Relative Potency (cAMP HTRF bioassay; sample REF125, 0.313 mg/mL, against exenatide reference standard) was 1.21. Also, the Mean Relative Potency (cAMP HTRF bioassay; sample REF150, 0.375 mg/mL, against exenatide reference standard) worked out at 1.5; the Relative Potency % (cAMP HTRF bioassay; BYETTA Lot 1 against exenatide reference standard) worked out at 104%; the Relative Potency % (cAMP HTRF bioassay; BYETTA Lot 2 against exenatide reference standard) was found to be 108%; the Relative Potency % (cAMP HTRF bioassay; BYETTA Lot 3 against exenatide reference standard) is 102%. This substance had a Relative Potency % (cAMP HTRF bioassay; EQW Lot 1 against exenatide reference standard) of 78.1%; a Relative Potency % (cAMP HTRF bioassay; EQW Lot 2 against exenatide reference standard) of 75.9%; a Relative Potency % (cAMP HTRF bioassay; EQW Lot 3 against exenatide reference standard) of 88.6%; a Relative Potency %, average of 3 BYETTA lots (cAMP HTRF bioassay) of 105%. The same substance returned a Relative Potency %, average of 3 EQW lots (cAMP HTRF bioassay) of 80.9%.
